# Target: Glutamate NMDA receptor
# Assay: Antagonist activity at NMDAR in embryonic cultures of rat cortical neuron assessed as inhibition of NMDA-induced calcium influx preincubated for 10 mins followed by NMDA addition by Fluo-4/AM dye based fluorescence assay
# Format: tissue-based
smiles,measurement,value
CC12CC3CC(C)(C1)CC(N)(C3)C2 [MEMANTINE],IC50,30 µM
